US4499091A, “1-Amino (or substituted amino)-1,4-dihydro-4-oxo-6-fluoro-7-heterylquinoline-3-carboxylic acids and their use as antibacterial agents” (Sterling Drug Inc., priority 1983, dated 1985)
≈ marks a conversion by molar mass, not a printed value.

How the values were obtained:
[1] = system: Staphylococcus aureus Smith; test: in vitro antibacterial activity, serial dilution (MIC); assay type: cell-based; details: 18-20 hours static incubation, read-out: Minimal Inhibitory Concentration (MIC)
Procedure: (§1) The in vitro antibacterial activity of the compounds of the invention was determined by conventional serial dilution procedures. Bacterial cultures were grown in tryptose phosphate broth or brain heart infusion broth (containing heat-inactivated normal horse serum for tests with S. pyogenes) overnight at 37° C. and subsequently diluted in double strength broth to provide bacterial inocula of about 2×10^5 cells/ml. Aqueous solutions of the compounds of the invention were prepared by dissolving the free acid form in 0.5N sodium hydroxide. The solutions were diluted with sterile distilled water to 1000 mcg/ml of compound in terms of the free acid. Serial two-fold dilutions of the compound stock solutions were prepared in water and 0.5 ml of each dilution was transferred to sets of tubes, one set for each bacterial inoculum.

[2] = system: Streptococcus pyogenes C203; test: as above; assay type: cell-based; details: 18-20 hours static incubation, read-out: Minimal Inhibitory Concentration (MIC)
Procedure: as §1

CNn1cc(C(=O)O)c(=O)c2cc(F)c(N3CCN(C)CC3)cc21 [Example 1, 6-Fluoro-1,4-dihydro-1-methylamino-7-(4-methyl-1-piperazinyl)-4-oxo-3-quinolinecarboxylic acid]
MIC [1]: 3.9 µg/mL (≈ 11.7 µM)
MIC [2]: 7.8 µg/mL (≈ 23.3 µM)
